Results on two compounds are retold here after PubChem BioAssay AID585 (National Center for Advancing Translational Sciences (NCATS), 2007).

Chains of the proteins cited; added tags and fusions are not shown.
UniProt P00811, whole entry: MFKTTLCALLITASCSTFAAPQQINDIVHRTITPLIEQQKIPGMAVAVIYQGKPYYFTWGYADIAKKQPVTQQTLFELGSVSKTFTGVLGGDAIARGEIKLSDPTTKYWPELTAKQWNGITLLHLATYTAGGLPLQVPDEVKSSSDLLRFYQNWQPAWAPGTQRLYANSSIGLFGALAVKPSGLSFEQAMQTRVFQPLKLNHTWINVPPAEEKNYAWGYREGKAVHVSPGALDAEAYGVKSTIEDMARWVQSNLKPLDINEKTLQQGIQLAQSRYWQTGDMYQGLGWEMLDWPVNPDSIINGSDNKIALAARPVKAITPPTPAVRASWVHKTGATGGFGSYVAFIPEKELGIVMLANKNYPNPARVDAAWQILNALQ

The list shows a part of the results, in another mix than the full data. The source made the active and inactive calls. Calls follow the shape of the full dose curve.

This assay concerns the target Beta-lactamase (Escherichia coli (strain K12)) (UniProt P00811). The assay can be described thus: Promiscuous and Specific Inhibitors of AmpC Beta-Lactamase (assay without detergent). Also: % of control where 0% means no effect. As to conditions: AmpC nitrocefin hydrolysis, absorbance 480 nm, no detergent; at 28.7 µM (top of the series). The method, then:
NIH Molecular Libraries Screening Centers Network [MLSCN]
NIH Chemical Genomics Center [NCGC]
PI Name: Shoichet, Brian K.
This aggregation profiling approach exploits the sensitivity of aggregate formation to detergent. Inhibition of b-lactamase is measured in the presence and absence of 0.01% Triton X-100. See Pubchem assay "Promiscuous and Specific Inhibitors of AmpC Beta-Lactamase (assay with detergent)" for related screen. Compounds that inhibit only in the absence of detergent are considered likely promiscuous aggregators.
A screen of 1,030 compounds was performed in Brian Shoichet's lab in 96-well format. AmpC activity was measured by following the absorbance at 480 nm. Nitrocefin is a chromogenic substrate: while nitrocefin is yellow (lmax 390 nm), the product of its hydrolysis is red (lmax 486 nm, 17,000 M-1). AmpC beta lactamase was provided by Brian Shoichet and Brian Feng, UCSF.
NCGC Assay Protocol Summary:
20 mM phosphate buffer, pH 7.0
Triton X-100: No Detergent screen: 0.0001%, Detergent screen: 0.01%.
Buffer in columns 3 and 4 as negative control (no enzyme).
5.3 nM AmpC in columns 1, 2, 5-48. […]
Six uL of reagents were dispensed to 1536-well Greiner black clear bottom plates. […] The plates were immediately transferred to and read every 20 seconds for 4 min on ViewLux (Perkin-Elmer) High-throughput CCD imager using 480 nm absorbance protocol. […]
In the case of `O=[N+]([O-])C(Cl)(Cl)Cl`, the activity change, negative = inhibition is inactive: -4.4%. With `CN(CCCl)CCCl`, the activity change, negative = inhibition is inactive: -5.8%.
